Source: PubChem BioAssay (Tox21)
“And” between values parts separate entries of the source, which are not always exact repeats. Identical values can stand only once. For part of these data: What follows is the remainder of the data, with few or none of the hits. Results filed as inconclusive are left out. Some compounds were tested as several samples or in several runs, with calls that do not always agree. Where a call stands in place of a potency, no number is given. Only a part is listed here, and it is no random draw. The source made the active and inactive calls. Unless noted, the call rests on the fitted dose curve; in most records, active means well fitted curve in the direction sought with a large enough effect in the repeat runs; inconclusive means weak or mixed curves; inactive means no such curve, though single readings can be large; an effect the other way counts as inactive or inconclusive.

Chains of the proteins cited; added tags and fusions are not shown. Lines headed by an entry give the natural chain unless they say otherwise; changes in a name come on top.
UniProt Q92731, whole entry, looked up: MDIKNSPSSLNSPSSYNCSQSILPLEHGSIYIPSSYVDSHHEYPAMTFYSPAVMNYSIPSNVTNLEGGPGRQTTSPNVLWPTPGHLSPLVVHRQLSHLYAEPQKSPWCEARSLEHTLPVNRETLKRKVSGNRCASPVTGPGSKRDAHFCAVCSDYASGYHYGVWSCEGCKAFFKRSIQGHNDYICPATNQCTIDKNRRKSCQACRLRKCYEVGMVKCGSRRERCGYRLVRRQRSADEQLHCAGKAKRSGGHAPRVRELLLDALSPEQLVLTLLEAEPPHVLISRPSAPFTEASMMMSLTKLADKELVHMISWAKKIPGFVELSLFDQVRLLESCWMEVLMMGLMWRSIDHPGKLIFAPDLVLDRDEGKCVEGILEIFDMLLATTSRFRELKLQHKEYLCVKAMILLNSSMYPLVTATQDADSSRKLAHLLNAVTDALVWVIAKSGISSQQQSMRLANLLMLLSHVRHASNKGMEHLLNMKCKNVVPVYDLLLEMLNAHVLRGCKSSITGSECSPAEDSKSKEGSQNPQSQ
UniProt P03372, whole entry, looked up: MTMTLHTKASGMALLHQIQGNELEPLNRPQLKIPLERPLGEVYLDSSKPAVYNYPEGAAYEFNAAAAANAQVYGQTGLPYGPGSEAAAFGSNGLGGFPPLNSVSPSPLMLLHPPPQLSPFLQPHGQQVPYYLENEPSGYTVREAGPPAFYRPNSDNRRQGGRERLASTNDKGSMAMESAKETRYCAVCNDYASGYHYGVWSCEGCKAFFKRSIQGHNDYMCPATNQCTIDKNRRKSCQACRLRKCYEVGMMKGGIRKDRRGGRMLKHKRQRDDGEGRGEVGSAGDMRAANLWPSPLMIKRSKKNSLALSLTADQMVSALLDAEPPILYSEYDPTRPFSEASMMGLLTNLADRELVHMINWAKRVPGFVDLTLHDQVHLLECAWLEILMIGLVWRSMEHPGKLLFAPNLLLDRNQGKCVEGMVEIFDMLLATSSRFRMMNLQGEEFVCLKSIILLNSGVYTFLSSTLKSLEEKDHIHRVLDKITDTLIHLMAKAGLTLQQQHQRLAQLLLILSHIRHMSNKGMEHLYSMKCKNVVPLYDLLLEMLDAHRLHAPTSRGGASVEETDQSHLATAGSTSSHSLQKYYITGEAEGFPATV
UniProt Q96RI1: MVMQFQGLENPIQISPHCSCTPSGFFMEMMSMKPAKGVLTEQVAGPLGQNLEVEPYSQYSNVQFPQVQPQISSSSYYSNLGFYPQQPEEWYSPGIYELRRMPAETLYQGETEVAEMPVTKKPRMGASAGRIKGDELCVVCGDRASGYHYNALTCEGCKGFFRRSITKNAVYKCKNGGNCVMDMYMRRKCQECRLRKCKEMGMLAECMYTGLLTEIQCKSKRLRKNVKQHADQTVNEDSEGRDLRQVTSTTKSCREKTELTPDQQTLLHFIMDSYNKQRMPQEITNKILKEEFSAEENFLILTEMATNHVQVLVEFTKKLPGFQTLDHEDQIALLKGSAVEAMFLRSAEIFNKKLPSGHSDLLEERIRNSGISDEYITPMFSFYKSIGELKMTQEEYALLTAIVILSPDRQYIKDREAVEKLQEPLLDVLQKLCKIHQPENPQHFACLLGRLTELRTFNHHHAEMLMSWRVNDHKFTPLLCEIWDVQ
UniProt P10275: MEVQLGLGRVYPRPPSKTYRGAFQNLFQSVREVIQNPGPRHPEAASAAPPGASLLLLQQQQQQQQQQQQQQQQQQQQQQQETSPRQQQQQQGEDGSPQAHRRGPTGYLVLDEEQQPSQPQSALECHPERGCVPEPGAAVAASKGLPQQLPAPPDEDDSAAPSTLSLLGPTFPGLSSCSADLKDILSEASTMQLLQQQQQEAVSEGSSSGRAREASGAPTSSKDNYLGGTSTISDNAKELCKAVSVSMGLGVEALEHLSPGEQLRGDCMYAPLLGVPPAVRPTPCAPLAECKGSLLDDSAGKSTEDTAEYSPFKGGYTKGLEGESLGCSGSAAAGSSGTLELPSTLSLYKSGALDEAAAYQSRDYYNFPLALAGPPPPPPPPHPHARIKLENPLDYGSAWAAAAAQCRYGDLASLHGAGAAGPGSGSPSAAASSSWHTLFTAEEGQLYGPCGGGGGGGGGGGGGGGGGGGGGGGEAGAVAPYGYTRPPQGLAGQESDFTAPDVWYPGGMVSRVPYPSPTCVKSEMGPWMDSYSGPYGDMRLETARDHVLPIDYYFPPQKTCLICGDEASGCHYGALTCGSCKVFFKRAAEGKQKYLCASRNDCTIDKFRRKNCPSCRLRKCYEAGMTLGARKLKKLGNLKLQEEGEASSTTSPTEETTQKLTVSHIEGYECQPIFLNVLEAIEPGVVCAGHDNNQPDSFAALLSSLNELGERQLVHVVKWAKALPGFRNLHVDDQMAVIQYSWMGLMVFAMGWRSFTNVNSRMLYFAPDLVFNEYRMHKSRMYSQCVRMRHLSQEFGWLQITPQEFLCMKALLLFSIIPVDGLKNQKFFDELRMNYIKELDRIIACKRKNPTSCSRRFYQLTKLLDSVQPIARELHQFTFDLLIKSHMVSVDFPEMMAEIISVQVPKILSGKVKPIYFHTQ

Experiments:
[1] = qHTS assay to identify small molecule agonists of the NFkB signaling pathway (AID 1159509; active means well fitted curve in the direction sought with a large enough effect in the signal ratio in the repeat runs, not every such curve was filed as active; the % refers to the signal ratio); details: NFkB-bla ME-180 cells, beta-lactamase FRET ratio, 5 h; at 61 µM (top of the series) unless noted
In short: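 Agonist activity was read as beta-lactamase-driven FRET change (460 and 530 nm emission, 405 nm excitation) following 1.5 hr substrate loading at room temperature. Beforehand, ME-180 NFkB-bla reporter cells were treated with compounds for 5 hr at 37 C.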

[2] = qHTS assay to identify small molecule antagonists of the retinoic acid receptor (RAR) signaling pathway (AID 1159552; further: nearly all actives have a fitted effect of over 50% in size)
In short: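 Retinol signaling pathway inhibitors screened in C3RL4 RARE-luciferase reporter cells seeded overnight at 37 C, then compounds added with 1 uM (final) retinol as pathway substrate. After 6 hr at 37 C, luciferase luminescence read after 30 min at room temperature.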

[3] = biological target: Estrogen receptor beta (Homo sapiens) (UniProt Q92731); experiment: qHTS assay to identify small molecule antagonists of the estrogen receptor beta (ER-beta) signaling pathway (AID 1259378; active means well fitted inhibition curve with a large enough effect in the signal ratio in the repeat runs, not every such curve was filed as active; the % refers to the signal ratio)
In short: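 ER-beta-UAS-bla HEK293T cells in 2% charcoal-stripped FBS medium treated with compound plus 1nM final 17-beta-estradiol for 16 hr at 37C. Beta-lactamase reporter read by FRET substrate fluorescence after 2 hours at room temperature.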

[4] = biological target: Estrogen receptor (Homo sapiens) (UniProt P03372); experiment: qHTS assay to identify small molecule antagonists of the estrogen receptor alpha (ER-alpha) signaling pathway (AID 743069; active means well fitted curve in the direction sought with a large enough effect in the signal ratio in the repeat runs, not every such curve was filed as active; the % refers to the signal ratio; further: potency means the concentration at half of the fitted maximal effect)
[5] = biological target: Estrogen receptor (Homo sapiens) (UniProt P03372); experiment: qHTS assay to identify small molecule agonists of the estrogen receptor alpha (ER-alpha) signaling pathway (AID 743075; calls by dose curve;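 further: HEK293 GripTite cells with ER-alpha and UAS-driven beta-lactamase reporter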)
[6] = biological target: Estrogen receptor (Homo sapiens) (UniProt P03372); experiment: qHTS assay to identify small molecule agonists of the estrogen receptor alpha (ER-alpha) signaling pathway using the BG1 cell line (AID 743079); further: nearly all actives have a fitted effect of over 20% in size
[7] = biological target: Bile acid receptor (Homo sapiens) (UniProt Q96RI1); experiment: qHTS assay to identify small molecule antagonists of the farnesoid-X-receptor (FXR) signaling pathway (AID 743217; active means well fitted inhibition curve with a large enough effect in the signal ratio in the repeat runs, not every such curve was filed as active; the % refers to the signal ratio); details: HEK293T FXR-UAS-bla, beta-lactamase ratio, CDCA-stimulated, 16 h
In short: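 Cells carrying a UAS-driven beta-lactamase reporter (GeneBLAzer FXR-UAS-bla HEK 293T) were plated and rested 5 h at 37 °C. Compounds in DMSO were added alongside chenodeoxycholic acid agonist at 50 uM final and left 16 h at 37 °C before FRET substrate readout.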

[8] = biological target: Bile acid receptor (Homo sapiens) (UniProt Q96RI1); experiment: qHTS assay to identify small molecule agonists of the farnesoid-X-receptor (FXR) signaling pathway (AID 743220; active means well fitted activation curve with a large enough effect in the signal ratio in the repeat runs, not every such curve was filed as active; the % refers to the signal ratio); details: HEK293T FXR-UAS-bla, beta-lactamase FRET ratio, 16 h
[9] = biological target: Estrogen receptor (Homo sapiens) (UniProt P03372); experiment: qHTS assay to identify small molecule antagonists of the estrogen receptor alpha (ER-alpha) signaling pathway using the BG1 cell line in the presence of 0.1 nM 17-beta-estradiol (AID 1259244); details: VM7Luc4E2 (BG1) ERE-luciferase, antagonist mode, 0.1 nM E2, 22 h; further: nearly all actives have a fitted effect of over 50% in size
[10] = biological target: Estrogen receptor (Homo sapiens) (UniProt P03372); experiment: qHTS assay to identify small molecule agonists of the estrogen receptor alpha (ER-alpha) signaling pathway in the presence of an antagonist (AID 1259383; calls by dose curve; further: top concentration of the series differs between compounds; nearly all actives have a fitted effect of over 15% in size)
[11] = biological target: Androgen receptor (Homo sapiens) (UniProt P10275); experiment: qHTS assay to identify small molecule agonists of the androgen receptor (AR) signaling pathway using the MDA cell line (AID 743040; further: nearly all actives have a fitted effect of over 20% in size); details: MDA-kb2 AR-luc cells, MMTV luciferase, 16 h; at 70.3 µM (top of the series); stronger effect = higher value
[12] = qHTS assay to identify small molecule agonists of the NFkB signaling pathway - cell viability counter screen (AID 1159515; calls by dose curve; further: nearly all actives have a fitted effect of over 55% in size; further: potency means the concentration at half of the fitted maximal effect)
In short: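 Cells are seeded (2,000 NFkB-bla ME-180 per well), rested overnight, and dosed with DMSO-dissolved compounds for 5 hr at 37 C. Viability is then read by CellTiter-Glo luminescence after 30 min at room temperature.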

[13] = biological target: Androgen receptor (Homo sapiens) (UniProt P10275); experiment: qHTS assay to identify small molecule agonists of the androgen receptor (AR) signaling pathway in the presence of an antagonist (AID 1259381; calls by dose curve; further: nearly all actives have a fitted effect of over 15% in size)
[14] = qHTS assay to identify small molecule antagonists of the estrogen related receptor signaling pathway with the pleiotropic PPARgamma coactivator (PGC) from Tox21 10K library (AID 1224841; call rule not given here; further: actives are mostly falling curves and most rising ones were filed inactive; nearly all actives have a fitted effect of over 50% in size); details: PGC/ERR reporter cell line, ONE-Glo luciferase, 18 h; at 92.4 µM (top of the series)
[15] = biological target: Nuclear receptor subfamily 1 group I member 2 (Homo sapiens) (UniProt O75469); experiment: Human pregnane X receptor (PXR) small molecule agonists, qHTS assay (AID 1346982); further: nearly all actives have a fitted effect of over 35% in size
In short: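 Cells: HepG2 stably carrying PXR-Luc. Medium held 5% charcoal-stripped FBS. Compounds in DMSO added after 5 hr plating, incubated 24 hr, then luminescence quantified with ONE-Glo.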

[16] = biological target: Nuclear receptor subfamily 1 group I member 2 (Homo sapiens) (UniProt O75469); experiment: CYP3A4 induction through human pregnane X receptor (PXR) by small molecules, qHTS assay (AID 1346984); further: nearly all actives have a fitted effect of over 40% in size
In short: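 Quantitative HTS in DPX-2 cells, i.e. HepG2 transfected with PXR response element and CYP3A4-promoter luciferase. Compounds in DMSO incubated 24hr at 37C; then P450-Glo CYP3A4 substrate, 3uM final, 3hr; One-Glo luminescence.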

[17] = biological target: Nuclear receptor subfamily 1 group I member 2 (Homo sapiens) (UniProt O75469); experiment: Human pregnane X receptor (PXR) activation by small molecules, qHTS assay (AID 1346985); further: nearly all actives have a fitted effect of over 40% in size
[18] = biological target: Androgen receptor (Homo sapiens) (UniProt P10275); experiment: qHTS assay to identify small molecule antagonists of the androgen receptor (AR) signaling pathway (AID 743035; active means well fitted inhibition curve with a large enough effect in the signal ratio in the repeat runs, not every such curve was filed as active; the % refers to the signal ratio)
[19] = biological target: Androgen receptor (Homo sapiens) (UniProt P10275); experiment: qHTS assay to identify small molecule antagonists of the androgen receptor (AR) signaling pathway using the MDA cell line (AID 743042; further: nearly all actives have a fitted effect of over 55% in size)
[20] = biological target: Androgen receptor (Homo sapiens) (UniProt P10275); experiment: qHTS assay to identify small molecule antagonists of the androgen receptor (AR) signaling pathway using the MDA cell line in the presence of 0.5 nM R1881 (AID 1259243); further: nearly all actives have a fitted effect of over 50% in size

## COc1cccc(OC)c1C(=O)N[C@@H]1C(=O)N2[C@@H]1SC(C)(C)[C@@H]2C(=O)O
[1]
  activation: inactive: -0.969%

## CN(C)C/C=C(/c1ccc(Br)cc1)c1cccnc1
[1]
  activation: inactive: -0.807%
[2]
  Potency: inactive

## S=C1NC=NC2N=CNC12 (stereo not given)
[1]
  activation: inactive: 0.0691%
[2]
  Potency: inactive

## CC(C)(C)NCC(O)c1cc(O)cc(O)c1 (stereo not given)
[1]
  activation: inactive: -0.871%

## CCOCC(O)COc1ccc(NC(=O)CC[S+](C)C)cc1 (stereo not given)
[1]
  activation: inactive: 0.578%

## CN(C)C(=O)Oc1cccc([N+](C)(C)C)c1
[1]
  activation: inactive: -0.116%
[2]
  Potency: inactive
[3]
  Potency: inactive

## CC(=O)O[C@H]1C[C@@H]2CC[C@@H]3[C@H](CC[C@@]4(C)[C@H]3C[C@H]([N+]3(C)CCCCC3)[C@@H]4OC(C)=O)[C@@]2(C)C[C@@H]1N1CCCCC1
[1]
  activation: inactive: -0.402%
[3]
  Potency: inactive

## C[C@H](N)[C@H](O)c1cccc(O)c1
[2]
  Potency: inactive

## C[C@H]1NCc2cc(-c3ccc4c(=O)c(C(=O)O)cn(C5CC5)c4c3OC(F)F)ccc21
[2]
  Potency: inactive

## CCN(C)C(=O)Oc1cccc([C@H](C)N(C)C)c1
[2]
  Potency: inactive

## CCCCCC(C)N (stereo not given)
[4]
  Potency: inactive
[5]
  Potency: inactive
[6]
  Potency: inactive
[7]; at 62.6 µM (top of the series)
  activity change, negative = inhibition: inactive: 19.2%
[8]; at 62.6 µM (top of the series)
  activation: inactive: -0.527%
[1]
  activation: inactive: -0.254%
[9]; at 42.5 µM (top of the series)
  activity change, negative = inhibition: inactive: 0.248%
[3]
  Potency: inactive
[10]
  Potency: inactive

## CC(NN)c1ccccc1 (stereo not given)
[4]
  Potency: inactive
[5]
  Potency: inactive
[7]; at 29.1 µM (top of the series)
  activity change, negative = inhibition: inactive: 0.281%
[8]; at 29.1 µM (top of the series)
  activation: inactive: 1.77%
[1]
  activation: inactive: -0.304% [at 28.5 µM]
[9]; at 19 µM (top of the series)
  activity change, negative = inhibition: inactive: 6.02%
[10]
  activation: inactive: 1.58% [at 19 µM]

## OC[C@@H](O)[C@@H](O[C@@H]1O[C@H](CO)[C@H](O)[C@H](O)[C@H]1O)[C@H](O)[C@@H](O)CO
[2]
  Potency: inactive

## CCCn1cc[n+](C)c1C
[2]
  Potency: inactive

## NC(=NCCCCCCN=C(N)/N=C(\N)Nc1ccc(Cl)cc1)/N=C(\N)Nc1ccc(Cl)cc1
[11]
  activity change: active: -10.9% [middle of 5 runs]
[4]
  Potency: active: 15.8 µM [cytotoxic] [middle of 4 runs]
[5]
  Potency: inactive
[12]
  Potency: active: 34.3 µM and active: 43.4 µM and inactive
[13]
  Potency: inactive
[10]
  Potency: inactive

## [O-]/[N+](=N\O)c1ccccc1
[2]
  Potency: inactive
[14]
  activity, negative = inhibition: inactive: 40.9% and inactive: 12.2%

## Cc1onc(-c2c(Cl)cccc2Cl)c1C(=O)N[C@@H]1C(=O)N2[C@@H]1SC(C)(C)[C@@H]2C(=O)O
[1]
  activation: inactive: -1.69%
[2]
  Potency: inactive
[3]
  Potency: inactive

## CCN[C@@H]1C[C@H](N)[C@@H](OC2OC(CN)=CCC2N)[C@H](O)[C@H]1O[C@H]1OC[C@](C)(O)[C@H](NC)[C@H]1O (stereo not given in full)
[4]
  Potency: inactive
[5]
  Potency: inactive
[6]
  Potency: inactive
[1]
  activation: inactive: -0.0288% [at 0.628 µM]
[9]; at 0.349 µM (top of the series)
  activity change, negative = inhibition: inactive: -0.432%
[3]
  activity, negative = inhibition: inactive: 15.4% [at 0.349 µM]
[10]
  activation: inactive: 0.71% [at 0.349 µM]

## [Cl][In]([Cl])[Cl]
[2]
  Potency: inactive

## OC[C@H]1O[C@H](O[C@H]2O[C@H](CO)[C@@H](O)[C@H](O)[C@H]2O)[C@H](O)[C@@H](O)[C@@H]1O
[1]
  activation: inactive: -0.261% [at 78.8 µM]
[2]
  Potency: inactive
[3]
  Potency: inactive

## NC[C@H]1O[C@H](O[C@H]2[C@H](O[C@@H]3O[C@H](CO)[C@@H](O)[C@H]3O)C(O)[C@H](N)C[C@@H]2N)[C@H](N)[C@@H](O)[C@@H]1O (stereo not given in full)
[7]; at 13.2 µM (top of the series)
  activity change, negative = inhibition: inactive: 5.06%
[8]; at 13.2 µM (top of the series)
  activation: inactive: 1.05%
[1]
  activation: inactive: -0.607% [at 6.95 µM]
[3]
  activity, negative = inhibition: inactive: 3.52% [at 8.39 µM]
[15]
  activation: inactive: -2.38% [at 8.39 µM]
[16]
  Potency: inactive
[17]
  Potency: inactive

## NC[C@H]1O[C@H](O[C@H]2[C@H](O)[C@@H](O[C@H]3O[C@H](CO)[C@@H](O)[C@H](N)[C@H]3O)[C@H](N)C[C@@H]2N)[C@H](O)[C@@H](O)[C@@H]1O
[4]
  Potency: inactive
[5]
  Potency: inactive
[6]
  Potency: inactive
[1]
  activation: inactive: 0.0722% [at 6.95 µM]
[9]; at 8.39 µM (top of the series)
  activity change, negative = inhibition: inactive: 8.83%
[10]
  activation: inactive: -0.0169% [at 8.39 µM]

## COCCc1ccc(OCC(O)CNC(C)C)cc1 (stereo not given)
[2]
  Potency: inactive

## FB(F)F
[1]
  activation: inactive: -1.13% [at 78.8 µM]
[2]
  Potency: inactive
[3]
  Potency: inactive

## COCCOc1cc2cc(C(=O)NC3CCN(C(C)C)CC3)n(CC(=O)Nc3ccc(Cl)cn3)c2cn1
[7]; at 62.6 µM (top of the series)
  activity change, negative = inhibition: inactive: -9.33%
[8]; at 62.6 µM (top of the series)
  activation: inactive: 0.821%
[1]
  activation: inactive: -0.381%
[2]
  Potency: inactive

## C[N+]1(C)CCC(OC(=O)C(O)(c2ccccc2)C2CCCC2)C1 (stereo not given)
[18]
  Potency: inactive
[11]
  activity change: inactive: 0.083% and inactive: 0.522%
[19]
  Potency: inactive
[1]
  activation: inactive: -0.223%
[20]
  Potency: inactive
[13]
  Potency: inactive

## CC(C(=O)O)c1cccc(Oc2ccccc2)c1 (stereo not given)
[1]
  activation: inactive: 0.176%
[2]
  Potency: inactive
[3]
  Potency: inactive
[15]
  Potency: inactive

## CNC[C@H](O)c1ccc(O)c(O)c1
[2]
  Potency: inactive

## COc1ccc2cc1Oc1cc3c(cc1OC)CC[N+](C)(C)[C@H]3Cc1ccc(cc1)Oc1c(OC)c(OC)cc3c1[C@@H](C2)[N+](C)(C)CC3
[2]
  Potency: inactive

## COc1cc2c(cc1OC)-c1cc3ccc(OC)c(OC)c3c[n+]1CC2
[1]
  activation: inactive: -0.0066% [at 78.8 µM]
[3]
  Potency: inactive
